These results are taken from patent publication US20230241155A1, “METHODS AND MEANS FOR MODIFYING HEMODYNAMICS IN INFECTIONS” (Biotempt B.V., priority 2020, published 2023).

This data set is described as follows: Solubility / aggregation screen of AQGV peptide salts. The text has this:
FIG. 7: Overview of solubility experiments with results in Table 1.

In the case of AQGV-tartrate, under “in relation to peptide-acetate aggregation”, the “aggregation in aqueous solution” value is “(strongly) reduced aggregation”. For the setting “solubility in 0.9% NaCl, compared to AQGV-Ac”, the “solubility (aggregation point)” value is reported as “Higher solubility”.
